Measured values: patent US20250041311A1, “Compound For Treating or Preventing Vimentin-Mediated Diseases” (Aluda Pharmaceuticals, Inc., priority 2021, published 2025)

Tests used:
[1] = test system: primary human hepatocytes; conditions: highest concentration of 10 μM, 3 days
[2] = test system: human umbilical vein endothelial cells (HUVEC); conditions: highest concentration of 10 μM, 3 days

| SMILES | toxic effects on human hepatocytes [1] | toxic effects on human umbilical vein endothelial cells [2] |
| --- | --- | --- |
| O=C(Nc1ccc(Cl)cc1)Nc1ccc(Nc2nc(/C=C/c3ccccc3)nc(N3CCOCC3)n2)cc1 [Compound C50] | no toxic effects | no toxic effects |
| O=C(Nc1ccc(F)cc1)Nc1ccc(Nc2nc(/C=C/c3ccccc3)nc(N3CCOCC3)n2)cc1 [Compound C52] | no toxic effects | no toxic effects |
